Results taken from PubChem BioAssay (Tox21).
This is a selection; strong and weak results do not stand in their true shares. Records with an inconclusive call do not appear. Calls of active or inactive are those of the source. Calls follow the shape of the dose curve; as a rule, active = well fitted cell-killing curve with a large enough effect in the repeat runs; inconclusive = weak or mixed curves, or effect the other way; inactive = flat fitted curve, though single readings scatter.

Key:
[1] = cAMP Responsive Elements (CRE) small molecule antagonists, cell-based qHTS assay: qHTS cell viability counter screen (AID 2060913); details: CRE-bla HEK293T viability, CellTiter-Glo luminescence, 5 h; at 92.4 µM (top of the series); also: nearly all actives have a fitted effect of over 40% in size
Excerpt: (§1) U.S. Tox21 Program National Center for Advancing Translational Sciences [NCATS] Division of Preclinical Innovation [DPI] U.S. Environmental Protection Agency [EPA] National Institutes of Environmental Health Sciences [NIEHS] National Toxicology Program [NTP] U.S. Food and Drug Administration [FDA] Tox21 Assay Overview: CREB (cyclic-AMP Responsive Element Binding Protein) is a cellular transcription factor. It binds to certain DNA sequences called cAMP Responsive Elements (CRE) and regulates the transcription of the genes. […] This cell line can be used to find agonists/antagonists of the cyclic AMP signaling pathway. The activation of the report gene under culture conditions can be detected by fluorescence intensity. This cell line has been used to screen the Tox21 10K compound library to identify agonists that induce oxidative stress. The cytotoxicity of the Tox21 compound library against the CRE-bla cell line was tested in parallel by measuring the cell viability using CellTiter-Glo assay (Promega, Madison, WI) in the same wells.
Tox21 Assay Protocol Summary: CRE-bla Hek 293T cells were suspended in assay medium (DMEM containing 10% dialyzed FBS, 0.1 mM NEAA, 1 mM sodium pyruvate and 25 mM HEPES) and dispensed at 2,000 cells/4 uL /well into 1536-well black wall/clear bottom plates using a Multidrop Combi (ThermoFisher Scientific, Waltham, MA) dispenser. […] The plates were incubated at room temperature for 2 h, then fluorescence intensities were measured using an Envision plate reader (PerkinElmer, Shelton, CT) at Excitation 405nm, Emission 460nm and 530nm. The % activity was determined from the ratio of 460nm/530nm. For cell viability readout that measures cytotoxicity, 4 uL /well of CellTiter-Glo reagent was added into the assay plates using Bioraptr FRD. After 30 min incubation at room temperature, the luminescence intensity in the assay plates was measured using a ViewLux (PerkinElmer, Shelton, CT) plate reader.

[2] = cAMP Responsive Elements (CRE) small molecule agonists, cell-based qHTS assay: qHTS cell viability counter screen (AID 2060914); details: CRE-bla HEK293T viability, CellTiter-Glo luminescence, 5 h;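 also: viability read after 3 h of compound exposure; nearly all actives have a fitted effect of over 50% in size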
Excerpt: National Center for Advancing Translational Sciences [NCATS]
Division of Preclinical Innovation [DPI]
U.S. Environmental Protection Agency [EPA]
National Institutes of Environmental Health Sciences [NIEHS]
National Toxicology Program [NTP]
U.S. Food and Drug Administration [FDA]
as §1, with “CREB” for “U.S. Tox21 Program National Center for Advancing Translational Sciences [NCATS] Division of Preclinical Innovation [DPI] U.S. Environmental Protection Agency [EPA] National Institutes of Environmental Health Sciences [NIEHS] National Toxicology Program [NTP] U.S. Food and Drug Administration [FDA] Tox21 Assay Overview: CREB”
Tox21 Assay Protocol Summary:
CRE-bla Hek 293T cells were suspended in assay medium (DMEM containing 10% dialyzed FBS, 0.1 mM NEAA, 1 mM sodium pyruvate and 25 mM HEPES) and dispensed at 2,000 cells/5 uL /well into 1536-well black wall/clear bottom plates using a Multidrop Combi (ThermoFisher Scientific, Waltham, MA) dispenser. After the assay plates were incubated at 37 C/5% CO2 for 18 hrs, 23 nL of compounds dissolved in DMSO, positive controls or DMSO only was transferred to the assay plate by a pintool workstation (Kalypsys, San Diego, CA). After the plates were incubated at 37 C/5% CO2 for 3 hrs, 1 uL of LiveBLAzer B/G FRET substrate (Invitrogen, Carlsbad, CA) was added to each well using Bioraptr Flying Reagent Dispenser (FRD, Aurora Discovery, San Diego, CA). The plates were incubated at room temperature for 2 h, then fluorescence intensities were measured using an Envision plate reader (PerkinElmer, Shelton, CT) at Excitation 405nm, Emission 460nm and 530nm. The % activity was determined from the ratio of 460nm/530nm. For cell viability readout that measures cytotoxicity, 4 uL /well of CellTiter-Glo reagent was added into the assay plates using Bioraptr FRD. After 30 min incubation at room temperature, the luminescence intensity in the assay plates was measured using a ViewLux (PerkinElmer, Shelton, CT) plate reader.
% is scaled to controls: 0 for no effect and ±100 for the full control effect.

| Compound | viability change, negative = cytotoxic [1] | activity change, negative = cytotoxicity ([2]; at 92.4 µM (top of the series)) | activity change, negative = cytotoxicity ([2]; at 42.5 µM (top of the series)) |
| --- | --- | --- | --- |
| CCC(=O)N(c1ccccc1)C1(COC)CCN(CCc2cccs2)CC1 | inactive: -15.3% | inactive: 0.273% |  |
| CCC(=O)N(c1ccccc1)C1(COC)CCN(CCn2nnn(CC)c2=O)CC1 | inactive: -2.46% | inactive: -2.11% |  |
| O=[N+]([O-])C(Cl)(Cl)Cl | inactive: -2.18% | inactive: -9.43% |  |
| CN(CCCl)CCCl |  | inactive: 4.47% | inactive: 9.46% |
